# From patent US12570638B2, “Fused imidazole derivatives as AHR antagonists” (Sail Biomedicines, Inc., priority 2020, dated 2026)
# Protein sequences, listed by entry. Tags and fused reporters are not part of them. Residues count along the entry.
# UniProt P35869, 11-848 limits assumed: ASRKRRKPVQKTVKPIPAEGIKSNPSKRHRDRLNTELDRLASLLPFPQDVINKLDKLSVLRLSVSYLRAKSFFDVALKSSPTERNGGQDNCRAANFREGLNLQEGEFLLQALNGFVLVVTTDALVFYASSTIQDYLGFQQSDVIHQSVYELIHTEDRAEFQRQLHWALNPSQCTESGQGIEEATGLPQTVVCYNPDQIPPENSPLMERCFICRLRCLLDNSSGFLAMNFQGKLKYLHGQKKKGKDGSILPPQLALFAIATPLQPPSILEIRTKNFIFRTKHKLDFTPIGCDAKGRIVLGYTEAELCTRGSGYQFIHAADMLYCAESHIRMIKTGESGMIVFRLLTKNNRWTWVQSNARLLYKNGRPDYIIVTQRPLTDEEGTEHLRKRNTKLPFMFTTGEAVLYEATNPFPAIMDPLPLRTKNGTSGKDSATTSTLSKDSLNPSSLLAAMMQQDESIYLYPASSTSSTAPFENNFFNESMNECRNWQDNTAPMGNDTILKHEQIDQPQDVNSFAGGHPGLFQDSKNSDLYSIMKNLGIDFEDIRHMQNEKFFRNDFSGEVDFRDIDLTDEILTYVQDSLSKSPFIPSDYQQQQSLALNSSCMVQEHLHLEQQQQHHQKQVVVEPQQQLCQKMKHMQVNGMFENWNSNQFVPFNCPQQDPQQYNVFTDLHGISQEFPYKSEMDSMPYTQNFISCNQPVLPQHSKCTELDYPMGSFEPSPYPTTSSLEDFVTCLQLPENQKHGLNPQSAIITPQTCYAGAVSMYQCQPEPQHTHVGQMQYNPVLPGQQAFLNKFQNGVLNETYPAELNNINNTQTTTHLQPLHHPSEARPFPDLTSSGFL
# Legend:
# AHR = AHR (Homo sapiens, UniProt P35869); assay: DRE-Luciferase Reporter Assay (HepG2 AhR-Lucia reporter cells)
# Excerpt: AHR binds to Dioxin Responsive Elements (DRE) upstream of genes that it activates. One measure of AHR activity is activation of a reporter gene, such as luciferase, downstream of one or multiple DRE elements. Luciferase activity will reflect activation and inhibition of AHR in the cells expressing his reporter. 20000 Human HepG2 liver carcinoma—AhR-Lucia reporter cells or Human HT29 colon adenocarcinoma—AhR reporter cells or other cell line with a DRE-luciferase reporter stably transfected were plated in Eagle's Minimal Essential Medium, 10% heat-inactivated FBS, 1× non-essential amino acids Pen-Strep (10,000 U/mL) and Normocin (100 ug/mL) in plates (96-well, 384-well or other plates) and incubated overnight at 37° C. in a CO2 incubator and treated with and without AhR antagonists at a log dilution starting at 100 uM. […]
# Cells were incubated for 24 or 48 hours or another time point and then, supernatant was analyzed for determination of luciferase activity as a read-out of the AHR activation or inhibition. Luciferase was measured with the commercial kit QUANTI-Luc™ assay solution kit from Invivogen following the manufacturer's instructions.
# The level of luciferase with only agonist ligand added was the maximum signal while the luciferase with […] was the minimum signal. IC50 values were determined as the concentration which inhibits half of the luciferase activity.
# [1] = Solubility Determination Assay (PBS, LC-MS/MS); conditions: 2 hours
# Experimental: The stock solutions of test compounds and control compound progesterone were prepared in DMSO at the concentrations of 10 mM. 15 μL of stock solution (10 mM) of each sample was placed in order into their proper 96-well rack. 485 μL of PBS pH 1.6 and pH 7.4 were added into each vial of the cap-less Solubility Sample plate. The assay was performed in singlet. One stir stick was added to each vial and then the vial was sealed using a molded PTFE/Silicone plug. The solubility sample plates were then transferred to the Eppendorf Thermomixer Comfort plate shaker and shaken at 25° C. at 1100 rpm for 2 hours. After completion of the 2 hours, plugs were removed and the stir sticks were removed using a big magnet. The samples from the Solubility Sample plate were transferred into the filter plate. Using the Vacuum Manifold, all the samples were filtered. An aliquot of 5 μL was taken from the filtrate followed by addition of 495 μL of a mixture of H2O and acetonitrile containing internal standard (1:1). […]
# The plate was placed into the well plate autosampler. The samples were evaluated by LC-MS/MS analysis. […]
# The filtrate was analyzed and quantified against a standard of known concentration using LC coupled with mass spectral peak identification and quantitation. Solubility values of the test compound and control compound were calculated as follows: […]
pIC50 (AHR),"pIC50 (AHR; read-out: HepG2-Luc IC50, HepG2 AhR-Lucia reporter cells, luciferase activity with AHR activating ligand at EC50)",Structure (SMILES),"Aq. Solubility at pH = 1.6 ([1]; PBS pH 1.6, 25° C.)","Aq. Solubility at pH = 7.4 ([1]; PBS pH 7.4, 25° C.)"
> 7.00,–,Cn1nccc1C(=O)Nc1ccc2nc(-c3cc(F)ccc3C(F)F)[nH]c2c1,–,–
–,> 7.00,Cn1ncnc1C(=O)Nc1ccc2nc(-c3cc(F)ccc3C(F)F)[nH]c2c1,+++ (“+++” indicates a solubility value equal to or greater than 10 μM),++ (“++” indicates a solubility value between 1 and 10 μM)

# pIC50: −log10 of the molar value. Like-named read-outs stand apart in the source and are kept apart here.
